Experimental findings from US20240207463A1, “RADIOACTIVE COMPLEX OF ANTI-EGFR ANTIBODY, AND RADIOPHARMACEUTICAL” (NIHON MEDI-PHYSICS CO., LTD., priority 2021, published 2024) are described below.

This data set relates to A431 cells. As to the kind of experiment: Antitumor effect in subcutaneous tumor-bearing model of A431. The data set is classed as in vivo. Conditions: 15 kBq/mouse, 37 days observation.

For the substance “Comparative Example 1: Conjugate with cetuximab by using 225Ac-labeled DOTA-DBCO; contains a thiourea bond [reference compound]”, the “general condition and sign of toxicity (loss of weight)” value is listed as “no sign of toxicity such as significant loss of weight was observed”.
